Activity change, negative = inhibition data for one molecule are collected here from PubChem BioAssay AID720591 (Broad Institute, 2013).

Amino acid sequences for entries named in this document (tags omitted).
UniProt Q9NXA8, whole entry: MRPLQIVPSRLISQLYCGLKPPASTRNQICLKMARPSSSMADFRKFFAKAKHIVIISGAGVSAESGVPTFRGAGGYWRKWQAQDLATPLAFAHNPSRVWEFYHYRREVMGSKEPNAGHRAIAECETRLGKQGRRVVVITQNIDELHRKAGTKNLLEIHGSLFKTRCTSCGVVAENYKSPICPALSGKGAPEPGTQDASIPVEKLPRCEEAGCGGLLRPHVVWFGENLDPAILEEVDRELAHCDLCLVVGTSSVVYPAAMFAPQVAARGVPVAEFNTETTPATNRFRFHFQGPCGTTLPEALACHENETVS

The structures appear in SMILES notation. The entries are a selection whose mix differs from that of the whole data set. Entries with a potency or affinity are not part of this list. Active and inactive are the calls of the source.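 How the source made its calls: active means Decreasing signal and fitted IC50 at most twice the top valid tested dose; inconclusive means Bad fit or a level curve showing 30 to 70% inhibition; inactive means the rest.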

In the test the target is NAD-dependent protein deacylase sirtuin-5, mitochondrial (Homo sapiens) (UniProt Q9NXA8). Nature of the test: SIRT5 desuccinylase inhibitors, dose response, biochemical, fluorescence imaging, cherry-pick, set 5 (AID 720591).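 Further: 0% = median of neutral control wells and -100% = median of positive control wells.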 The following applies: Purified SirT5, succinyl-peptide AMC, trypsin-coupled fluorescence; at 15 µM (top of the series).
For `CCCOc1ccc(C(=O)NCC2(N(C)C)CCCCC2)cc1OC`, the activity change, negative = inhibition was inactive: -26.6%.
